Yeast mating assay 1: variants of the scFv Ab-14

The target is the same throughout: PDVDLGDISGINAS, from the HR2 region of SARS-CoV-2 spike.

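The starting antibody came from a phage panning campaign against this peptide. Library AAYL49 holds single substitutions and randomly drawn double and triple substitutions in the CDRs. AlphaSeq pools MATa yeast showing the antibodies with MATalpha yeast showing the peptide. Binding brings cells together so that they mate, and sequencing counts the barcode pairs among the diploids. Each replicate has its own calibration line, from reference interactions of the BCL2 family. Mating was done three times.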

The variants keep the light chain, the linker and the frameworks of Ab-14 (scFv order VH, a 15-residue (Gly4Ser)3 linker, VL).
VH: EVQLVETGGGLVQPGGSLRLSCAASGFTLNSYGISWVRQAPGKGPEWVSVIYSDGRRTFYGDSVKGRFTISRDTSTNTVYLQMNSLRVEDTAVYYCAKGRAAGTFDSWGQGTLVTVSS
VL: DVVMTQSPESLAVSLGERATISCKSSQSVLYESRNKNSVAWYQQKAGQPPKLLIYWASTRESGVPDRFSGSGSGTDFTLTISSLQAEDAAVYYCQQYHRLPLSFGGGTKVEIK

Sequences are complete VH domains. Numbers give log10(Kd / nM), so 0 is 1 nM and 3 is 1 µM. Smaller is tighter. Where no diploid with the target was found in that replicate, the entry reads "nd": below detection, most likely a poor binder, though not proof of it.

VH,"replicates, log10 nM",signal with controls
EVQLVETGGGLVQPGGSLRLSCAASGFTLNSYGISWVRQAPGKGPEWVSVIYSDGRRTFYGDSWKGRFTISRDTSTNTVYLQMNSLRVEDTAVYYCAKYRMAGTFDSWGQGTLVTVSS,nd / nd / nd,0/9
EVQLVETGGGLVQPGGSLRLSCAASGFTLNSYGISWVRQAPGKGPEWVSVIYPDGRRTFYGPSVKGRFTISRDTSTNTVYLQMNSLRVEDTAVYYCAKGPAAGTFDSWGQGTLVTVSS,4.10 / nd / nd,2/9 (4.11)
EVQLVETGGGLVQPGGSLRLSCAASGFTLNSYGISWVRQAPGKGPEWVSVIYSDGRRTFKGDSVKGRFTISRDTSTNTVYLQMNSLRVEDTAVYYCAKGRAVGTFDFWGQGTLVTVSS,2.67 / nd / 4.06,1/9 (4.46)
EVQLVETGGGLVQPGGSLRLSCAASGFTLWSSGISWVRQAPGKGPEWVSVIYSDGRRTFYGDSVKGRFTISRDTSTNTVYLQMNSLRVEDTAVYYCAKGRAAGTFDSWGQGTLVTVSS,nd / nd / nd,0/9
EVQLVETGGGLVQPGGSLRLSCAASGFTLNSSGISWVRQAPGKGPEWVSVIYSDGRRTFYGDSVKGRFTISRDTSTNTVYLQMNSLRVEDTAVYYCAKGRMAGTFDAWGQGTLVTVSS,5.42 / 3.87 / 3.08,2/9 (3.69)
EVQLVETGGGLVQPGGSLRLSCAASGFTLNSYGISWVRQAPGKGPEWVSVIYSIGRRTFYGDSVKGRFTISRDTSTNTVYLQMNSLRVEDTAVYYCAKGRAAGTFFRWGQGTLVTVSS,nd / nd / nd,0/9
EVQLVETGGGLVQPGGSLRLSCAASGFPLNSYGISWVRQAPGKGPEWVSVIYSDGRRPFYPDSVKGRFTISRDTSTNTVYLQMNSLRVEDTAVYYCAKGRAAGTFDSWGQGTLVTVSS,nd / 4.20 / nd,4/9 (4.06)
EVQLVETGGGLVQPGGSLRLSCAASGFVLNSYGISWVRQAPGKGPEWVSVIRSDGRRTFYGDSVKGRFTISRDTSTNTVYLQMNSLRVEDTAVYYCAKGRAAGQFDSWGQGTLVTVSS,nd / 5.17 / nd,4/9 (4.03)
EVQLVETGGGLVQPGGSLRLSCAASGFTLNSYGISWVRQAPGKGPEWVSVIYSDGHRTFYGDSVKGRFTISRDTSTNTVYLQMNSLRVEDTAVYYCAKGRAAGDFDDWGQGTLVTVSS,2.56 / 1.78 / 2.07,2/9 (3.09)
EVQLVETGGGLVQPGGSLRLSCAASGFTLNYYGISWVRQAPGKGPEWVSVIYSDGRRGFYGDSVKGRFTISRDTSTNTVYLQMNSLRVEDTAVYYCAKGRAAATFDSWGQGTLVTVSS,nd / nd / nd,3/9 (4.22)
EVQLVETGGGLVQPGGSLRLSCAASGFTLNSYGISWVRQAPGKGPEWVSVIYSDGRRTPYGDCVKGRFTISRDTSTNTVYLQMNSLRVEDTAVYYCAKGRNAGTFDSWGQGTLVTVSS,nd / 2.58 / nd,0/9
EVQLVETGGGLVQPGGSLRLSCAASGFTLNSYGKSWVRQAPGKGPEWVSVIRSDGRRTFYGDSVKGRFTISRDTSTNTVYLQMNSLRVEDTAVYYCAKGRYAGTFDSWGQGTLVTVSS,4.44 / 3.53 / nd,1/9 (4.80)
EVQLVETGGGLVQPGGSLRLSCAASPFTLNSYGINWVRQAPGKGPEWVSVIYSDGRRTFYGDSVKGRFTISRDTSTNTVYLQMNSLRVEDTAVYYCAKGIAAGTFDSWGQGTLVTVSS,nd / nd / nd,2/9 (4.09)
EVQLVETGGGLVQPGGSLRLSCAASGFTLNSYGDSWVRQAPGKGPEWVSVIYSDGRFTFYGDSVKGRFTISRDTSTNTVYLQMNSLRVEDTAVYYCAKGAAAGTFDSWGQGTLVTVSS,4.12 / nd / nd,1/9 (3.08)
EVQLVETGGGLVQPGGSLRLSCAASGFMLNSYGISWVRQAPGKGPEWVSVIYSDGRRLFEGDSVKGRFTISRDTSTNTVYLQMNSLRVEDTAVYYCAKGRAAGTFDSWGQGTLVTVSS,nd / nd / nd,0/9
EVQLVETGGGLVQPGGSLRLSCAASGFTLNSYWRSWVRQAPGKGPEWVSVIYSDGRRTFYGDNVKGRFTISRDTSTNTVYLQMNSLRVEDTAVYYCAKGRAAGTFDSWGQGTLVTVSS,nd / nd / nd,2/9 (4.07)
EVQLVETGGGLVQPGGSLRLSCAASGFTLNSYGISWVRQAPGKGPEWVSVIWSDGRRQFYGDSVKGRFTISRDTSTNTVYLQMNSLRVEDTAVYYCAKGRAAGTFDSWGQGTLVTVSS,nd / nd / nd,0/9

Excerpt, the first 3 entries:

VH	replicates, log10 nM	signal with controls
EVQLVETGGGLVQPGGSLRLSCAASGFTLNSYGISWVRQAPGKGPEWVSVIYSDGRRTFYGDSWKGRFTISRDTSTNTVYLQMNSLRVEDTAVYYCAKYRMAGTFDSWGQGTLVTVSS	nd / nd / nd	0/9
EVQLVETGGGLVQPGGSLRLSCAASGFTLNSYGISWVRQAPGKGPEWVSVIYPDGRRTFYGPSVKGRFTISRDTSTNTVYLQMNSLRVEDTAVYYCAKGPAAGTFDSWGQGTLVTVSS	4.10 / nd / nd	2/9 (4.11)
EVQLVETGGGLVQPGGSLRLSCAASGFTLNSYGISWVRQAPGKGPEWVSVIYSDGRRTFKGDSVKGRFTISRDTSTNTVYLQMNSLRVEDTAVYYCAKGRAVGTFDFWGQGTLVTVSS	2.67 / nd / 4.06	1/9 (4.46)

For reference, the parent read 0.65 as the reference entry and 4.11 (one replicate of three) as a member of this library. Three control strains display no target. For library AAYL49, 15% of the pairings with them gave a signal, with a median of 4.06 and one signal in twenty below 2.83, so weak values seen in few replicates may be background. The control count says in how many pairings with the empty strains this scFv gave a signal, with their mean in brackets.

The measurements come from Engelhart et al. 2022 (doi:10.1038/s41597-022-01779-4) through the FLAb antibody collection.